Bioassay records (PubChem)
Sfp PPTase inh = Sfp phosphopantetheinyl transferase inhibition; 3.5% of 310,000 active; Potency, µM, hits mostly inhibitors; Q9F4F7; Biochemical Sfp PPTase activity, qHTS; AID 1490;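 further: the enzyme is Sfp with the accession as filed and its product quenches rhodamine fluorescence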
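Compounds were incubated with enzyme (final 15 nM) for 15 min at room temperature before substrate addition started the reaction. Fluorescence at 525 nm excitation, 598 nm emission was recorded immediately and after 30 minutes.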
G9a inh = G9a (human) methyltransferase inhibition. G9a H3K9 monomethylation, AlphaScreen, 2 h. Potency, µM (doses to about 102 µM), usual class: inhibitors. 8.8% of 350,000 active; further: nearly all actives have a fitted effect of over 75% in size
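Methyltransferase reactions run at room temperature for 2 h (20 nM enzyme, 500 nM biotin-H3K9 peptide, 20 uM SAM) after a 15 min compound preincubation; product detected by AlphaScreen beads and anti-H3K9me1 antibody.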
miR-21 reporter = miR-21 reporter, rising signal. HeLa miR-21 FLuc reporter, luciferase, 48 h. Potency, µM (highest dose often 38.3 µM). 340,000 tested, under 10 active. AID 2288; active = well fitted rising curve with a large enough effect; inconclusive = small, poorly fitted or top-dose-only effect; inactive = no such curve, though single readings can be large or run the other way;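 further: miR-21 action dims this reporter so a rising signal means less miR-21 action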
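Luminescence from a firefly luciferase reporter carrying a miR-21 binding site downstream, stably expressed under a CMV promoter in HeLa cells that make miR-21 endogenously, reports miRNA modulation after 48 h compound exposure up to approximately 40uM final.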
KDM4E inh = JMJD2E (human) inhibition; Potency, µM (top dose mostly 57.1 µM), hits mostly inhibitors; JMJD2E catalytic domain, FDH-coupled NADH fluorescence (FDH is formaldehyde dehydrogenase); 1.6% of 230,000 active; active means well fitted inhibition curve with a large enough effect, not every such curve was filed as active; inconclusive means small, poorly fitted or top-dose-only effect, or another doubt; inactive means no such curve, though single readings can be large or run the other way; further: nearly all actives have a fitted effect of over 50% in size
ALDH1A1 inh = inhibitors of human aldehyde dehydrogenase 1A1. P00352. 7.3% of 220,000 active. AID 1030. Purified ALDH1A1, NADH fluorescence, propionaldehyde substrate. Potency, µM (doses to about 75.3 µM), usual class: inhibitors; active means well fitted inhibition curve with a large enough effect, not every such curve was filed as active; inconclusive means small, poorly fitted or top-dose-only effect, or another doubt; inactive means no such curve, though single readings can be large or run the other way
LMNA splice mod = modulators of lamin A splicing | HeLa LMNA splicing GFP/RFP minigene ratio, 48 h | Potency, µM (titrated, usually from 46.1 µM), actives largely listed as inhibitors | AID 1487 | 0.01% of 200,000 active; active means well fitted inhibition curve with a large enough effect in the signal ratio, with a control signal flat, not every such curve was filed as active; inconclusive means small, poorly fitted or top-dose-only effect, or effect the other way, or a change in a side signal; the % refers to the signal ratio
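Read-out is the ratio of GFP to DsRed2 object intensity, acquired by 488 nm laser-scanning cytometry on HeLa lamin A-EGFP minigene reporter cells. Compound incubation 48 hrs at 37 °C in Opti-MEM with 2% FBS; DMSO 0.5% final.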
Each line names hits and unclear results; the compound was inactive in the other large screens. This is a sample that favours compounds with a hit; in the whole collection about 13% have one here. Unless noted, the call rests on the fitted dose curve; in most records, active means well fitted curve in the direction sought with a large enough effect; inconclusive means small, poorly fitted or top-dose-only effect, or another doubt; inactive means no such curve, though single readings can be large; an effect the other way counts as inactive or inconclusive.

O=C1c2cccc3cccc(c23)C(=O)N1CC1CCN(CC(O)COc2ccc3ccccc3c2)CC1 (stereo unspecified)	G9a inh 10µM, KDM4E inh inconclusive, ALDH1A1 inh inconclusive
CCOC(=O)Cc1ccc(NC(=O)Nc2ccccc2OCc2cc(=O)n3ccccc3n2)cc1	none (no result: Sfp PPTase inh, KDM4E inh, ALDH1A1 inh)
COc1ccc(S(=O)(=O)Nc2ccc(S(=O)(=O)N3CCOCC3)cc2)cc1	ALDH1A1 inh 4.5µM
COc1ccc(NC(=S)NNC(=O)c2ccc(S(=O)(=O)N3CCOCC3)cc2)cc1	G9a inh 40µM, ALDH1A1 inh inconclusive
CCn1c(CSCc2ccc(Cl)cc2)n[nH]c1=S	G9a inh 3.2µM, ALDH1A1 inh inconclusive (no result: LMNA splice mod)
CCOc1cccc2cc(-c3nc4sc(C(=O)Nc5ccc(C)cc5)c(C)c4c(=O)[nH]3)c(=O)oc12	none (no result: Sfp PPTase inh, KDM4E inh, ALDH1A1 inh)
Cc1ccc(C)n1-c1c(C(=O)NN)cnn1-c1ccccc1	ALDH1A1 inh 3.2µM
COc1ccccc1C(=O)N1CCN(Cc2c[nH]c3ccccc23)CC1	none (no result: KDM4E inh, ALDH1A1 inh, LMNA splice mod)
COc1ccc(Br)cc1CN1CCN(Cc2c[nH]c3ccccc23)CC1	Sfp PPTase inh inconclusive, G9a inh 8.9µM (no result: KDM4E inh, ALDH1A1 inh, LMNA splice mod)
COc1ccc(CN2CCN(Cc3c[nH]c4ccccc34)CC2)cc1	Sfp PPTase inh 50µM, G9a inh inconclusive (no result: KDM4E inh, ALDH1A1 inh, LMNA splice mod)
O=S(=O)(Cc1ccccc1)N1CCN(Cc2c(F)cccc2Cl)CC1	G9a inh 35µM (no result: Sfp PPTase inh, miR-21 reporter, KDM4E inh, ALDH1A1 inh, LMNA splice mod)
COc1ccc(Br)cc1CN1CCN(S(=O)(=O)Cc2ccccc2)CC1	G9a inh 20µM (no result: KDM4E inh, ALDH1A1 inh, LMNA splice mod)
C=CCNC(=O)COc1cc(C)cc(C)c1C	G9a inh inconclusive (no result: LMNA splice mod)
Cc1ccc(C#N)cc1	ALDH1A1 inh 32µM (no result: Sfp PPTase inh, G9a inh, miR-21 reporter, KDM4E inh, LMNA splice mod)
CCOC(=O)C1=C(N)Oc2cc(C)[nH]c(=O)c2C1c1ccncc1 (stereo unspecified)	none
CCOC(=O)C1=C(N)Oc2cc(C)n(C)c(=O)c2C1c1ccncc1 (stereo unspecified)	G9a inh 50µM
O=C1/C(=C/c2cccs2)N=C(c2cccs2)N1Nc1ccccc1	G9a inh 50µM, ALDH1A1 inh inconclusive, LMNA splice mod inconclusive
O=C1/C(=C\c2cccs2)N=C(c2cccs2)N1Nc1ccccc1	G9a inh 40µM, ALDH1A1 inh 14µM, LMNA splice mod inconclusive
Cc1ccc(C2=N/C(=C\c3cccs3)C(=O)N2Nc2ccccc2)cc1	G9a inh inconclusive, ALDH1A1 inh inconclusive, LMNA splice mod inconclusive
Cc1cc(N(C)N)nc(NC(=O)NS(=O)(=O)c2ccccc2Cl)n1	none (no result: KDM4E inh, ALDH1A1 inh, LMNA splice mod)
Cc1ccc2c(c1)sc(-c1ccc(N(C)C)cc1)[n+]2C	G9a inh 50µM (no result: KDM4E inh, ALDH1A1 inh, LMNA splice mod)
CCOc1cccc2sc(NC(=O)c3ccc(S(=O)(=O)N4CCCCC4C)cc3)nc12 (stereo unspecified)	LMNA splice mod inconclusive (no result: Sfp PPTase inh, KDM4E inh, ALDH1A1 inh)
CCn1cc(CNC(=S)Nc2cccc3ccccc23)cn1	G9a inh inconclusive, KDM4E inh inconclusive, ALDH1A1 inh 6.3µM (no result: LMNA splice mod)
S=C(NCc1ccccc1)Nc1cccc2cnccc12	Sfp PPTase inh 56µM, G9a inh 22µM (no result: KDM4E inh, ALDH1A1 inh, LMNA splice mod)
NC(=S)Nc1cccc2cnccc12	none
S=C(NCCc1ccccc1)Nc1cccc2cnccc12	Sfp PPTase inh 50µM, G9a inh 50µM, KDM4E inh inconclusive, ALDH1A1 inh 20µM, LMNA splice mod inconclusive
S=C(NCc1cccnc1)Nc1cccc2ccccc12	KDM4E inh inconclusive, ALDH1A1 inh 5µM, LMNA splice mod inconclusive
S=C(NCCc1ccncc1)Nc1ccccc1	none (no result: G9a inh)
COc1ccc(Cn2c(C(=O)O)c(CNCc3ccco3)c3ccc(OC)cc32)cc1	none (no result: Sfp PPTase inh, KDM4E inh, ALDH1A1 inh, LMNA splice mod)
S=C(NCc1cccnc1)NCc1cccnc1	none (no result: LMNA splice mod)
COc1ccc(OCCNC(=S)Nc2cccc3ccccc23)cc1	none
COc1ccc(CCNC(=S)Nc2cccc3ccccc23)cc1	ALDH1A1 inh 22µM, LMNA splice mod inconclusive
C=CCNC(=S)NCc1cccnc1	Sfp PPTase inh 79µM
COc1ccc(Cl)cc1NCC(=O)Nc1ccc(OC)c(S(=O)(=O)N2CCCCC2)c1	none (no result: Sfp PPTase inh, miR-21 reporter, KDM4E inh, ALDH1A1 inh, LMNA splice mod)
CC(C)(C)C(=O)Nc1nc(=S)ss1	Sfp PPTase inh 22µM, G9a inh inconclusive, ALDH1A1 inh 5.6µM
CCC(=O)Nc1nc(=S)ss1	Sfp PPTase inh 10µM, G9a inh 8.9µM, KDM4E inh inconclusive, ALDH1A1 inh 2µM
CCSc1nnc(NC(=O)CC)s1	none
